# Antibody variant affinities, Ab-91 heavy chain, assay 2

Reference: Engelhart et al. 2022, doi:10.1038/s41597-022-01779-4. File: FLAb, binding data.

Antigen: PDVDLGDISGINAS, a 14-residue peptide of the SARS-CoV-2 spike HR2 region.

Each scFv is VL, a (GGGGS)3 linker, VH, as in the parent Ab-91, and differs from it in the CDRs of the heavy chain only.
VL: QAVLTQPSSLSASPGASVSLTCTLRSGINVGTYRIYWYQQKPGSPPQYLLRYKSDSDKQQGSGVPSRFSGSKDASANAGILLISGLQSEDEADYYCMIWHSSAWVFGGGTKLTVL
VH: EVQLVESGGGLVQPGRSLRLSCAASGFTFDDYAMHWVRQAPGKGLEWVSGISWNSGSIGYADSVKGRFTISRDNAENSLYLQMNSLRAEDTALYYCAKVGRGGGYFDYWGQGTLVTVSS

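The library (AAYL51) carries one to three amino acid substitutions per variant, with no insertions or deletions. Affinity was read by AlphaSeq, a pooled yeast mating assay with surface-displayed partners. After mating in shaken culture at 30 °C for 16 h, diploids were selected and their barcode pairs sequenced. A regression on co-assayed BCL2-family reference pairs converts the normalised counts of each replicate to an apparent Kd. There are three technical replicates.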

The parent's heavy chain CDRs are GFTFDDYAMH, GISWNSGSIGYADSVK, VGRGGGYFDY; each variant's own CDRs replace them letter for letter. Numbers give log10(Kd / nM), so 0 is 1 nM and 3 is 1 µM. Smaller is tighter. Averages over replicates are reported, and they cover detected replicates only. "n.d." marks a missing value. The strain was present, yet no cells mated with the target were sequenced in that replicate, which points to weak or no binding.

| CDR-H1 | CDR-H2 | CDR-H3 | replicates, log10 nM | mean, log10 nM | signal with controls |
|---|---|---|---|---|---|
| GFTFDDYAMH | GISWNSGSIGYASTVK | VGRGGGDFDY | n.d. n.d. n.d. | n.d. | 1/9 (4.30) |
| QFTFDDYAMH | GISWHSGSIGYADSVK | VGRDGGYFDY | 4.85 5.55 5.42 | 5.27 | 4/9 (4.80) |
| PFCFDDYAMH | GISWNSGSIGYADSVK | VGQGGGYFDY | 4.23 n.d. 3.76 | 4.00 | 2/9 (3.27) |
| GFTFDDYARH | GISWNSGSIGYADWVK | VQRGGGYFDY | n.d. 5.56 n.d. | 5.56 | 1/9 (4.72) |
| GFTFDDYNTH | GISWNSGSIGYADSVK | VGRGGGYFDY | 4.12 5.68 n.d. | 4.90 | 3/9 (3.20) |
| GFTQDDYAMH | GISWPSGSIGYADSRK | VGRGGGYFDY | 5.59 5.64 n.d. | 5.62 | 2/9 (3.81) |
| GFTFDDYAMH | GISWNHGSIGYADNVK | VGRGGGYGDY | 3.15 3.52 3.69 | 3.45 | 1/9 (4.69) |
| GFTFDDVAMH | GISWNSGSICYADSVK | VGRGGGYWDY | n.d. n.d. n.d. | n.d. | 1/9 (5.23) |
| IFTFDDYAMH | GISWNSGSIGYADSRK | VGRGGGCFDY | n.d. n.d. n.d. | n.d. | 1/9 (4.11) |
| GFVFDDYAMH | GISWNSGSIGYADSVK | VGSMGGYFDY | n.d. 6.23 4.56 | 5.39 | 2/9 (5.56) |
| GFTFDEYADH | GISWNSGSIGYADSVK | VGRGGGYFYY | 4.04 n.d. n.d. | 4.04 | 2/9 (4.28) |
| GFTFDDYAMH | GISSNSGSIGYMDSVK | FGRGGGYFDY | n.d. 3.27 3.78 | 3.52 | 3/9 (4.47) |
| GFTFDDYAMH | GISWNSNSIGYADSVK | VGRGKGYFDY | 4.55 4.68 4.28 | 4.51 | 5/9 (4.60) |
| GFTFDDYAMH | SISWNTGSIGGADSVK | VGRGGGYFDY | n.d. 3.58 n.d. | 3.58 | 2/9 (5.50) |
| GFTFDDYAFH | GISWNEGSIGIADSVK | VGRGGGYFDY | n.d. n.d. n.d. | n.d. | 1/9 (2.22) |
| GFTFDDYAMH | GISWNSGMIGYAQSVK | VGRGGGYFDY | n.d. n.d. n.d. | n.d. | 0/9 |
| GFTFDDYAMH | GISWNSGSIWEADSVQ | VGRGGGYFDY | n.d. 4.47 n.d. | 4.47 | 1/9 (4.90) |
| GHTFDDYAMH | GISWNSGSIGQADSVK | VGRGGGYEDY | 5.72 n.d. n.d. | 5.72 | 2/9 (3.89) |
| GFTFDDYAMH | GISWNSGSIGYADSVK | VGFGGYYIDY | 2.30 2.48 2.20 | 2.33 | 3/9 (5.22) |
| GFTFEDYAMH | GISHNSGSIGYADSVK | VQRGGGYFDY | n.d. n.d. n.d. | n.d. | 2/9 (4.63) |
| GFTFDDYAMH | GNSWWSGSIGYADSVK | VGRGGGIFDY | 4.29 5.52 n.d. | 4.90 | 1/9 (3.72) |
| GFTFDDYAMH | GDSWNSGSIAYADSVK | VGRGGGYFDY | 5.57 n.d. n.d. | 5.57 | 4/9 (4.63) |
| GFTFDDYAMH | QISWNSGHIGYADSVK | VGRGGGYFDD | 5.71 n.d. n.d. | 5.71 | 3/9 (4.69) |
| GFTFDDYAMH | GISWNSGSIGYADSVK | VGRHGGYFDY | 2.29 2.23 1.79 | 2.10 | 5/9 (4.89) |
| GFTIDDYAMH | GNSWNSGSISYADSVK | VGRGGGYFDY | 6.79 n.d. 5.97 | 6.38 | 5/9 (4.89) |
| GFTFDKYAMH | GISWNSGSIGYLDSVK | VGRFGGYFDY | n.d. n.d. 2.32 | 2.32 | 0/9 |
| GFTFLKYDMH | GISWNSGSIGYADSVK | VGRGGGYFDY | n.d. n.d. n.d. | n.d. | 0/9 |
| GFTFDDYAMH | GTSWRSGSIGYVDSVK | VGRGGGYFDY | n.d. n.d. 5.01 | 5.01 | 4/9 (4.71) |
| GFTFDDYAMH | GISWNSGQIGYADSVK | VGRGWGYFDY | n.d. n.d. n.d. | n.d. | 1/9 (3.18) |
| GFTFYNYAMH | GISVNSGSIGYADSVK | VGRGGGYFDY | 1.29 1.17 0.64 | 1.04 | 4/9 (5.43) |
| GFTFDDYAMH | GIVWYSGSIGYADSVK | VGRGGGYFDY | n.d. n.d. n.d. | n.d. | 1/9 (4.92) |
| QFTFDDYAMH | GISWNSWSIGYADSVK | VGRGGGYFDY | 4.38 3.41 n.d. | 3.90 | 0/9 |
| GFTFDDYAMH | GISWNSGYIGYADSVK | VGRFGGSFDY | 3.10 5.25 3.65 | 4.00 | 2/9 (3.70) |
| GFTFDDYAMH | GISWNSGSIGYADSVY | VGRAGGYFDC | 2.38 2.81 2.78 | 2.65 | 6/9 (4.51) |
| GFTFDDHAMH | GIQWNSGKIGYADSVK | VGRGGGYFDY | 4.14 n.d. n.d. | 4.14 | 3/9 (3.47) |
| GFTEDDYAMH | GISWNSGSIGYMDSVK | VGRGGGYFDA | 4.53 4.72 5.28 | 4.84 | 5/9 (5.27) |
| GFTFDDYSMH | GISWNSGSICYADSCK | VGRGGGYFDY | 4.37 3.23 n.d. | 3.80 | 0/9 |
| GFTVDDYAMH | GISWNSGSIGYEYSVK | VGRGGGYFDY | n.d. n.d. n.d. | n.d. | 0/9 |

The 2 strongest on average among those seen in every replicate, once more:

CDR-H1,CDR-H2,CDR-H3,"replicates, log10 nM","mean, log10 nM",signal with controls
GFTFYNYAMH,GISVNSGSIGYADSVK,VGRGGGYFDY,1.29 1.17 0.64,1.04,4/9 (5.43)
GFTFDDYAMH,GISWNSGSIGYADSVK,VGRHGGYFDY,2.29 2.23 1.79,2.10,5/9 (4.89)

Nonspecific signal, from three strains lacking the peptide, appeared in 21% of pairings of library AAYL51, centred on 4.54 (5% of these signals below 3.26); values are not corrected for it. Also given: how often the same scFv was detected with the empty control strains, with their mean in brackets. For reference, the parent read 1.86 as the reference entry and 0.88 as a member of this library.